These results are taken from PubChem BioAssay AID1046 (PCMD, 2008).

Structures are written as SMILES. The list shows a part of the results, in another mix than the full data. Calls of active or inactive are those of the source.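 The calls were made as follows: active = inhibition at or above 40%; inactive = inhibition below 40%.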

The target of the assay is Prothrombin (Homo sapiens) (UniProt P00734). Description: blockers of thrombin peptide substrate cleavage – biochemical, 1536-well, fluorogenic AMC substrate, counter-screen for coagulation protease inhibitor project, primary screen (AID 1046).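 Also: 0% = enzyme with no compound and 100% = wells without enzyme.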 The note with it: alpha-thrombin, Boc-VPR-AMC fluorogenic substrate cleavage; at 5 µM; stronger effect = higher value. A general note: A counterscreen serves to expose hits that act by an unwanted route or on another target.
For orientation: inhibition means the change of the read-out against control, counted positive when it falls. With `COP1(=S)c2c(C)nn(CCC#N)c2N=C(c2ccc(F)cc2)N1C` (stereo not drawn), the inhibition is inactive: -7.71%.
Regarding `O=C(COc1ccccc1)OC1CN2CCC1CC2` (stereo not drawn), the inhibition was inactive: -4.08%.
With `CCOC(=O)c1ccc(NC(=O)C(C)(CCl)SC)cc1` (stereo not drawn), the inhibition is inactive: -3.78%.
For `CCC(C)N(CC(C)C)C(=S)SC(NC(C)=O)C(Cl)(Cl)Cl` (stereo not drawn), the inhibition is inactive: 3.43%.
Then `CCOC(=O)Nc1ccc([As](=O)(O)O)c(O)c1`, with inactive: -2.07%; and `Cc1cc(SC(NC(=O)c2ccccc2)C(Cl)(Cl)Cl)nc(C(C)C)n1` (stereo not drawn), with inactive: -0.41%; and `CCOC(=O)Nc1cccc([As](=O)(O)O)c1`, with inactive: -6.94%.
For `O=[N+]([O-])c1ccc(Nc2ccc(Oc3ccc([N+](=O)[O-])cc3[N+](=O)[O-])cc2)c([N+](=O)[O-])c1`, the inhibition is inactive: -2.14%.
`Cc1cc(SC(NC=O)C(Cl)(Cl)Cl)ncn1` (stereo not drawn): the inhibition is inactive: 0.39%.
The same measure for `O=P(Nc1ccccn1)(c1cccc2ccccc12)c1cccc2ccccc12`: inactive: 0.28%.
For the molecule `O=[As](O)(c1ccc(O)cc1)c1ccccc1O`, the inhibition was inactive: -3.12%.
As to `C[As](=O)(O)c1cccc(C(=O)O)c1`, the inhibition is inactive: 1.87%.
Regarding `Cc1ccc2nc3c(c(C)c2c1)CC(C(Cl)Cl)S3` (stereo not drawn), the inhibition was inactive: -9.19%.
With `CC(Cc1ccc(O)cc1)NCC(O)c1cc(O)cc(O)c1` (stereo not drawn), the inhibition is inactive: 3.11%.
As for `Cc1ccc(OP(=O)(Nc2ccc([N+](=O)[O-])cn2)Oc2ccc(C)cc2)cc1`, the inhibition was inactive: -2.75%.
For `CC(C)c1ccc(OP(=O)(Nc2ccccn2)Oc2ccccc2F)cc1` (stereo not drawn), the inhibition was inactive: -5.96%.
The same measure for `ClCCSc1nnc(-c2cccnc2)o1`: inactive: 1.37%; for `O=[N+]([O-])c1cc([N+](=O)[O-])c(-c2ccn[nH]2)s1`: inactive: -2.14%; for `CC(C)NC(=O)NP(=O)(Oc1ccccc1)Oc1ccccc1`: inactive: -2.16%.
The same measure for `CCN(CC)C(=S)SC(NC=O)C(Cl)(Cl)Cl` (stereo not drawn): inactive: -0.3%; for `Cc1cc(=O)[nH]c(N[N+](=O)[O-])n1`: inactive: -11.7%.
For the molecule `O=C(OC1CN2CCC1CC2)C12CC3CC(CC(C3)C1)C2` (stereo not drawn), the inhibition is inactive: -11.3%.
Then `Cc1c2c(nc3ccccc13)SC(C(Cl)Cl)C2` (stereo not drawn), with inactive: -0.44%.
Take `COc1cc(I)ccc1[As](=O)(O)O`: the inhibition is inactive: -1.51%.
Take `COc1ccc(N/C(=N/P(=O)(N2CCOCC2)N2CCOCC2)N2CCOCC2)cc1`: the inhibition is inactive: 1.54%.
Turning to `O=[As](O)(O)c1cccnc1`, the inhibition is inactive: -4.18%.
With `COc1cc(C(=O)NCC2(N3CCOCC3)CCCCC2)cc(Cl)c1OC(C)C`, the inhibition is inactive: -5.68%.
Then `O=C(OC1CN2CCC1CC2)c1ccc(Cl)cc1` (stereo not drawn), with inactive: -2.7%; and `Cc1cccc(OCC(=O)OC2CN3CCC2CC3)c1` (stereo not drawn), with inactive: 3.55%.
In the case of `O=[As](O)(c1cccc(O)c1)c1cccc(O)c1`, the inhibition was inactive: -5.6%.
`CCCOP(=S)(Nc1nc(N)cc(=O)[nH]1)OCCC`: the inhibition was inactive: -1.24%.
On to `Cc1ccc(NCCc2c([N+](=O)[O-])cc([N+](=O)[O-])cc2[N+](=O)[O-])cc1`, for which the inhibition was inactive: -0.58%.
Turning to `Nc1cccc2c([As](=O)(O)O)cccc12`, the inhibition was inactive: -4.79%.
Turning to `CCOP(=O)(Nc1cccc2ccccc12)OCC`, the inhibition was inactive: -1.67%.
Regarding `COc1cc(C2NCCC3(OCCO3)C2(C)C)cc(OC)c1OC` (stereo not drawn), the inhibition is inactive: 0%.
`CS(=O)(=O)c1cc([N+](=O)[O-])c2no[n+]([O-])c2c1`: the inhibition was inactive: 1.22%.
With `O=P(Nc1nccs1)(Oc1ccccc1)Oc1ccccc1`, the inhibition is inactive: 4.59%.
Turning to `O=P(Nc1nccs1)(c1ccccc1)c1nc2ccccc2s1` (stereo not drawn), the inhibition is inactive: 1.26%.
Then `CCOP1(=S)c2c(C)nn(CCC#N)c2N=C(c2ccccc2F)N1C` (stereo not drawn), with inactive: -7.64%.
For `O=C(O)COc1ccc([As](=O)(O)O)cc1[N+](=O)[O-]`, the inhibition was inactive: -3.28%.
In the case of `Nc1ccccc1[As](=O)(O)c1ccccc1`, the inhibition was inactive: -3%.
The same measure for `NC(=O)Nc1ccc([As](=O)(O)O)cc1`: inactive: 0.16%; for `O=[N+]([O-])c1ccc2c(c1)nnn2O`: inactive: 1.55%.
For the molecule `CCOP1(=S)c2c(C)nn(CCC#N)c2N=C(c2ccc(F)cc2)N1C` (stereo not drawn), the inhibition was inactive: -11.3%.
As to `CN(C(=O)Cc1ccccc1)[C@@H]1CC[C@]2(CCCO2)C[C@H]1N1CCCC1`, the inhibition is inactive: 2.48%.
In the case of `CC1CCC(C(C)C)C(OP(=O)(Nc2ccccn2)c2ccccc2)C1` (stereo not drawn), the inhibition was inactive: 1.35%.
Regarding `Cc1nn(-c2ccccc2)c2c1P(=O)(N1CCOCC1)N(C)C(c1ccccc1)=N2` (stereo not drawn), the inhibition was inactive: -3.87%.
Take `O=C(/C=C/c1ccccc1)OC1CN2CCC1CC2` (stereo not drawn): the inhibition is inactive: 0.16%.
In the case of `CN(C)C1(CNC(=O)c2ccc(S(C)(=O)=O)cc2)CCCCC1`, the inhibition is inactive: -5.7%.
As to `O=P1(Nc2ncccn2)COc2ccccc2OC1`, the inhibition is inactive: -8.03%.
For `Cc1ccc(OCC(=O)OC2CN3CCC2CC3)cc1` (stereo not drawn), the inhibition is inactive: -11.6%.
For `O=[As](O)(c1cccs1)c1cccs1`, the inhibition is inactive: 0.95%.
For the molecule `O=P1(Nc2ccc(Br)cn2)COc2ccccc2OC1`, the inhibition is inactive: -0.95%.
Take `Nc1cccc([As](=O)(O)c2ccccc2)c1`: the inhibition was inactive: 1.91%.
On to `CCOP(=O)(Nc1ccc(C)cn1)OCC`, for which the inhibition is inactive: 0.12%.
Consider `O=P1(Nc2ccccn2)COc2ccccc2OC1`, for which the inhibition is inactive: -8.84%.
As to `CC(C)(C)C(=O)NC(Sc1ncccn1)C(Cl)(Cl)Cl` (stereo not drawn), the inhibition was inactive: -2.14%.
As for `Clc1n[nH]nc1-c1nn[nH][15n]1`, the inhibition is inactive: -2.21%.
`O=[As](O)(c1ccccc1Br)c1ccccc1Br`: the inhibition was inactive: -3.48%.
The same measure for `CC(C)/C=N\N=C(\N)N[N+](=O)[O-]`: inactive: 4.78%.
On to `O=P(Nc1nccs1)(c1ccccc1)c1ccccc1`, for which the inhibition is inactive: -6.48%.
Regarding `CC(C)C(=O)NC(Sc1ccccc1)C(Cl)(Cl)Cl` (stereo not drawn), the inhibition was inactive: -5.49%.
With `c1nnnn1CCn1cnnn1`, the inhibition was inactive: -4.93%.
For the molecule `O=P(Nc1ccccn1)(c1ccc(Br)cc1)c1ccc(Br)cc1`, the inhibition was inactive: -2.6%.
As for `C[C@H]1OP(=O)(Oc2ccccc2)[C@H](O)[C@H](O)[C@H]1N=[N+]=[N-]` (stereo partly drawn), the inhibition was inactive: 1.66%.
The same measure for `O=P(Nc1nc2ccccc2s1)(c1ccccc1)c1ccccc1`: inactive: -13.5%; for `CC(=O)NC(SC(=S)N(C)C)C(Cl)(Cl)Cl` (stereo not drawn): inactive: -2.03%; for `O=[N+]([O-])c1ncn(CCn2cnc([N+](=O)[O-])n2)n1`: inactive: -3.27%.
As to `O=[As](O)(c1ccccc1)c1ccc(O)cc1`, the inhibition was inactive: -3.23%.
Turning to `C(Cc1nn[nH]n1)Cc1nn[nH]n1`, the inhibition was inactive: -0.41%.
As for `Nc1ccc([As](=O)(O)c2ccc([N+](=O)[O-])cc2)cc1`, the inhibition was inactive: -8.1%.
On to `O=C(OC1CN2CCC1CC2)c1cccc(Cl)c1` (stereo not drawn), for which the inhibition is inactive: 1.01%.
On to `O=C(NC1CCS(=O)(=O)C1)NP(=S)(Oc1ccccc1)Oc1ccccc1` (stereo not drawn), for which the inhibition was inactive: -7.77%.
Turning to `CCNC(=S)/N=C(\N)N[N+](=O)[O-]`, the inhibition is inactive: 2.25%.
The same measure for `Cc1ccc(NP(=O)(Oc2cccc(C)c2)Oc2cccc(C)c2)nc1`: inactive: -1%; for `CCOC(=O)NC(Sc1ccccc1)C(Cl)(Cl)Cl` (stereo not drawn): inactive: 2.91%; for `c1ccc(-c2nn[nH]n2)c(-c2nn[nH]n2)c1`: inactive: -6.89%.
Take `CC(=O)NC(SC(=S)N(CC(C)C)CC(C)C)C(Cl)(Cl)Cl` (stereo not drawn): the inhibition was inactive: 21.8%.
Regarding `COC(=O)c1cc2c(s1)N=C(c1ccccc1)N(C)P2(=O)N1CCOCC1` (stereo not drawn), the inhibition is inactive: 0.36%.
As for `CCC(=O)N1C2C3N(C(=O)CC)C1C1N(C(=O)CC)C(C(N1C(=O)CC)N3C(=O)CC)N2C(=O)CC`, the inhibition is inactive: 0.83%.
The same measure for `O=c1c2cc([N+](=O)[O-])ccc2[nH]c2c([N+](=O)[O-])cc([N+](=O)[O-])cc12`: inactive: -4.92%; for `CN(C)C(=O)Oc1noc2ccccc12`: inactive: -2.41%.
In the case of `Cc1ccccc1OP(=O)(Nc1ccccn1)Oc1ccccc1C`, the inhibition is inactive: -0.77%.
Consider `CCOc1ccc(C2=NCC(CBr)S2)cc1` (stereo not drawn), for which the inhibition is inactive: -0.06%.
Take `O=P1(Nc2nc3ccc(Cl)cc3s2)COc2ccccc2O1` (stereo not drawn): the inhibition is inactive: 0.55%.
On to `CC(C)(C)C(=O)NC(Sc1ccccc1)C(Cl)(Cl)Cl` (stereo not drawn), for which the inhibition is inactive: -4.06%.
In the case of `C[C@H]1OP(=O)(Oc2ccccc2)C[C@@H]2O[C@@H]21` (stereo partly drawn), the inhibition is inactive: 0.56%.
Turning to `C[C@@H]1C=CCP(=O)(Oc2ccccc2)O1` (stereo partly drawn), the inhibition was inactive: -0.06%.
For the molecule `CC(=O)Nc1ccc(Oc2c([N+](=O)[O-])cc([N+](=O)[O-])cc2[N+](=O)[O-])cc1`, the inhibition was inactive: -4.65%.
For `CC(=O)Nc1ccc([As](=O)(O)O)c(O)c1`, the inhibition is inactive: -5.73%.
As to `NC(=O)c1cc([N+](=O)[O-])cc([N+](=O)[O-])c1N`, the inhibition was inactive: -5.78%.
Regarding `Cc1ccc(N/C(=N/P(=O)(N2CCOCC2)N2CCOCC2)N2CCOCC2)cc1`, the inhibition is inactive: -2.21%.
On to `Cc1ccc(OP(=O)(Nc2nccs2)Oc2ccc(C)cc2)cc1`, for which the inhibition is inactive: -0.7%.
For the molecule `COc1ccccc1OP(=O)(Nc1ccc(C)cn1)Oc1ccccc1OC`, the inhibition is inactive: -10.6%.
The same measure for `CN1CCCC(OC(=O)C(c2ccccc2)c2ccccc2)C1` (stereo not drawn): inactive: -3.41%; for `Clc1ccc(Cl)c(NC2=NCC(CBr)S2)c1` (stereo not drawn): inactive: -4.03%.
For `Nc1cc(N)c2nonc2c1[N+](=O)[O-]`, the inhibition is inactive: -0.06%.
Then `CC(C)CC(=O)NC(Sc1ccc(Cl)cc1)C(Cl)(Cl)Cl` (stereo not drawn), with inactive: 4.36%.
For `O=C(NC(Sc1ccncn1)C(Cl)(Cl)Cl)c1ccccc1` (stereo not drawn), the inhibition is inactive: -2.31%.
Turning to `Cc1c2non([O-])c-2c(C)[n+](=O)[n+]1[O-]`, the inhibition was inactive: 30.8%.
In the case of `Oc1ccccc1CNc1ccccn1`, the inhibition is inactive: 0.24%.
Take `CC(=O)Nc1ccc([As](=O)(O)O)cc1`: the inhibition is inactive: 1.87%.
On to `O=C(O)c1ccccc1[As](=O)(O)O`, for which the inhibition was inactive: -3.36%.
